{"source": "paper PMC5997768", "about": "(2018)", "origin": "cited, not measured here", "conditions": "experimentally determined; cited from earlier work"}
{"substance": "Meperedine", "values": [{"measurement": "pKa", "result": 8.59}]}
